Bioassay records as filed in PubChem BioAssay.
In the library only some 1.6% were active in any assay of this set; here they are far more common.
CAL PDZ FP-1: inhibitors of human CAL PDZ peptide binding. Q9HD26. purified CAL PDZ, TMR-peptide fluorescence polarization, 1 h. inhibition, % at 24.9 µM. 300,000 compounds, 0.92% hits;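 active = mean inhibition of at least 30% with at least half of replicates also reaching 30%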;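 also: 0% = DMSO neutral control and 100% = excess unlabeled competitor peptide PRC23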
PglD DTNB: inhibitors of Campylobacter jejuni PglD acetyltransferase. purified PglD enzyme, DTNB colorimetric CoA detection. inhibition, % at 12.5 µM. 360,000 compounds, 0.098% hits; in the data active = inhibition above about 16%, passing the limit was not always enough
Yeast UUG start: alters start codon recognition fidelity in yeast; AID 602363; activity score, % at 18.7 µM; 350,000 tested, 0.13% active; S. cerevisiae UUG-firefly luciferase reporter, luminescence/redox ratio;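 active means replicate mean at a twofold rise or more, about +100% in these data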;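 further: firefly luciferase made from a UUG start codon reports start codon fidelity; reporter light over untreated wells divided by growth signal over untreated wells; some hits fall short of that in this replicate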
Vif inh: HIV Vif inhibition; HEK293T cells, Vif self-association by quenched fluorescence, imaging, 24 h; inhibition, % at 7.49 µM; 340,000 compounds, 0.35% hits; in the data active = inhibition above about 50%, passing the limit was not always enough
ARNT-TACC3 inh: ARNT/TACC3 interaction disruption | 390,000 compounds, 0.66% hits | AlphaScreen His-ARNT PAS-B/GST-TACC3 binding, luminescence; TACC3 fragment carries E629A point mutation | AID 623870 | inhibition, % at 9.99 µM;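 active = mean inhibition of replicates at least 50% and at least half of replicates each reaching 50%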;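 also: 0% = complete ARNT plus TACC3 wells and 100% = ARNT alone without TACC3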
CAL PDZ FP-2: blocks peptide binding to human CAL PDZ domain | 330,000 compounds, 0.02% hits | Q9HD26 | inhibition, % at 20 µM | purified CAL PDZ, TMR-peptide fluorescence polarization, 1 h;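 active = highest replicate inhibition of at least 40%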;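 also: plate controls were DMSO neutral control wells for no effect and unlabeled competitor peptide control wells for full effect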
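Material – purified CerCALP PDZ construct · Detection – FP readout, S and P plane fluorescence · Measure – percent inhibition from loss of millipolarization · Controls – unlabelled peptide for full inhibition, DMSO wells as neutral · Probe or stimulus – TMR-labelled reporter peptide T*-PRC34 bound in PDZ groove · Times – 1 h at RT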
PglD inh SP: confirmation of Campylobacter jejuni PglD acetyltransferase inhibitors | shares compounds with PglD DTNB | Purified C. jejuni PglD, DTNB absorbance 412 nm | inhibition, % at 20 µM | 320 tested, under 10 active | AID 743156;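 active = mean inhibition across replicates of at least 20% with every single replicate also at 20% or more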;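 also: initial rate of CoA release by acetyl transfer from AcCoA to the UDP-4-amino sugar; 0% = median of neutral control wells and 100% = median of positive control wells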
Numbers without * were called inactive; · = no result given.

cpd	CAL PDZ FP-1	PglD DTNB	Yeast UUG start	Vif inh	ARNT-TACC3 inh	CAL PDZ FP-2	PglD inh SP	compound
1	-10.7	30.9*	-32.6	76.8*	-7.3	·	2.9	Nc1ccc(-c2cnc(-c3ccc(N)cc3)nc2)cc1
2	-5.9	-4.1	-73.8	35.6	-6.3	-2.3	·	Oc1ccc(-c2cnc(-c3ccc(O)cc3)nc2)cc1
3	·	26.6*	-4.8	-8.8	-6.4	-4.1	-2.1	Cc1ccc(CN(c2ccc(C(=O)NCc3ccc4c(c3)OCO4)cc2)S(C)(=O)=O)cc1
4	-3.3	-1.0	-7.9	-3.7	-7.8	-0.6	·	Cc1ccc(C(=O)NCc2ccc3c(c2)OCO3)cc1
5	·	4.7	-17.7	·	-4.1	·	·	C[C@H](CO)N1C[C@H](C)[C@H](CN(C)Cc2ccc3c(c2)OCO3)Oc2c(NS(=O)(=O)c3cn(C)cn3)cccc2C1=O
6	-4.4	24.9*	-3.8	4.2	-0.7	-0.3	-1.4	O=C(NCc1ccco1)C1OCCc2ccccc21 (stereo not drawn)
7	0.6	0.8	-16.2	10.9	4.7	0.1	·	O=C(NCc1ccco1)C1CCCCC1
8	·	-1.4	-13.0	·	-0.2	·	·	C[C@H]1CN([C@@H](C)CO)C(=O)c2cc(-c3cccc(F)c3)cnc2O[C@@H]1CN(C)Cc1cccnc1
9	·	-1.3	-9.7	·	4.9	·	·	CN(C)C(=O)[C@H]1[C@H](CO)[C@H]2Cn3c(ccc(-c4ccncc4)c3=O)[C@@H]1N2CC1CCCC1
10	2.5	24.2*	-20.2	-6.7	-20.6	-1.0	-7.2	CCNC(=O)C1CC(=O)N(Cc2ccc3c(c2)OCO3)C(=Nc2ccc(OCC)cc2)S1 (stereo not drawn)
11	-5.2	20.5*	-53.9	-7.2	·	-4.7	3.7	COc1cccc2cc(-c3nnc(-c4ccccc4)o3)c(=O)oc12
12	·	-1.4	-18.7	·	0.0	·	·	C[C@H](CO)N1C[C@H](C)[C@H](CN(C)S(=O)(=O)c2cccs2)OCCCC[C@H](C)Oc2ccc(NC(=O)Cc3ccccc3)cc2C1=O

Pulled one by one from the list above:
cpd	CAL PDZ FP-1	PglD DTNB	Yeast UUG start	Vif inh	ARNT-TACC3 inh	CAL PDZ FP-2	PglD inh SP	compound
11	-5.2	20.5*	-53.9	-7.2	·	-4.7	3.7	COc1cccc2cc(-c3nnc(-c4ccccc4)o3)c(=O)oc12
5	·	4.7	-17.7	·	-4.1	·	·	C[C@H](CO)N1C[C@H](C)[C@H](CN(C)Cc2ccc3c(c2)OCO3)Oc2c(NS(=O)(=O)c3cn(C)cn3)cccc2C1=O

The main list resumes, repeating the 2 entries before the break.
cpd	CAL PDZ FP-1	PglD DTNB	Yeast UUG start	Vif inh	ARNT-TACC3 inh	CAL PDZ FP-2	PglD inh SP	compound
11	-5.2	20.5*	-53.9	-7.2	·	-4.7	3.7	COc1cccc2cc(-c3nnc(-c4ccccc4)o3)c(=O)oc12
12	·	-1.4	-18.7	·	0.0	·	·	C[C@H](CO)N1C[C@H](C)[C@H](CN(C)S(=O)(=O)c2cccs2)OCCCC[C@H](C)Oc2ccc(NC(=O)Cc3ccccc3)cc2C1=O
13	-0.3	53.8*	-13.6	31.9	-4.1	-1.2	8.2	CN1C(=O)C(CC(=O)NC2CCCCC2)SC1=Nc1ccccc1 (stereo not drawn)
14	·	74.6*	-8.4	-3.1	-6.1	1.6	-8.6	Cc1cc(C)cc(N(C(C)C(=O)N2CCCC2)S(C)(=O)=O)c1 (stereo not drawn)
15	-2.9	23.3*	2.4	15.7	-40.9	-2.2	-2.7	CCCCOc1ccc(CC(=O)NCC(=O)O)cc1
16	·	4.1	55.8	·	·	·	·	CO[C@@H]1CN(C)C(=O)c2cc(NC(=O)Nc3ccc(Cl)cc3)ccc2OC[C@@H](C)N(C)C[C@@H]1C
17	0.5	2.7	-17.7	3.6	-0.4	-1.9	·	O=C(O)[C@H]1Cc2ccccc2CN1S(=O)(=O)c1ccc(F)cc1
18	-3.2	24.6*	-15.9	-3.1	19.3	0.5	0.4	CC(=O)c1ccc(S(=O)(=O)N2Cc3ccccc3CC2C(=O)O)cc1 (stereo not drawn)
19	·	0.9	20.2	·	·	·	·	Cc1noc(C)c1NC(=O)N(C)C[C@H]1Oc2ccc(NC(=O)Nc3cccc4ccccc34)cc2CC(=O)N([C@H](C)CO)C[C@@H]1C
20	·	4.5	·	·	-0.8	·	·	CCCN1[C@H](C(=O)N2CCN(C)CC2)[C@@H](CO)[C@@H]2Cn3c(ccc(-c4ccccc4F)c3=O)[C@@H]21
21	-4.3	24.5*	6.1	26.9	-1.6	-2.4	-0.4	Cc1c(C(=O)NC(C)C)sc2ncn(CC(=O)N3CCC(C)CC3)c(=O)c12
22	0.5	24.2*	-12.9	7.6	-0.6	-0.8	8.4	CCn1cc(C(=O)NCCCN2CCCC(C)C2)c(=O)c2cc(S(=O)(=O)N3CCOCC3)ccc21 (stereo not drawn)
23	-2.3	23.0*	-7.8	-10.8	3.9	-0.6	6.5	CC(C(=O)N1CCCc2c1c(=O)oc1ccc(O)cc21)N1CCc2ccccc2C1 (stereo not drawn)
24	·	-0.4	-0.9	-0.3	3.5	-0.8	·	CN(CC(=O)N1CCCc2c1c(=O)oc1ccc(O)cc21)Cc1ccccc1

Results in sequence from the list.
Compounds 20–24 in PglD DTNB read 4.5, 24.5*, 24.2*, 23.0*, -0.4
Compounds 20–24 in Vif inh read ·, 26.9, 7.6, -10.8, -0.3

New compounds follow.
cpd	CAL PDZ FP-1	PglD DTNB	Yeast UUG start	Vif inh	ARNT-TACC3 inh	CAL PDZ FP-2	PglD inh SP	compound
25	·	23.6*	4.8	7.4	·	·	-12.4	CC(C)Oc1cc(F)ccc1-c1cc(C(=O)Nc2cccc(C(F)(F)F)c2)[nH]n1
26	·	2.3	-7.3	·	-10.4	·	·	CCS(=O)(=O)Nc1ccc2c(c1)C(=O)N(C)C[C@@H](OC)[C@@H](C)CN(Cc1nccs1)[C@@H](C)CO2
27	-3.6	·	·	-3.3	4.5	-1.7	·	COc1ccc(C(C)(C)C)cc1S(=O)(=O)N1CCC(C(N)=O)CC1
28	3.5	22.1*	1.9	9.0	-0.4	-0.4	-2.5	COc1ccc(F)cc1S(=O)(=O)N1CCC(C(N)=O)CC1
29	0.0	75.7*	3.7	-1.3	-3.8	-0.6	-1.2	O=C(CSc1ccccc1)NCCc1ccc(F)cc1
30	·	-0.5	3.2	-3.0	-3.0	0.0	·	O=C(CSc1ccccc1)NCCc1ccccc1
31	3.2	-1.7	-6.9	-4.7	1.2	-1.9	·	O=C(CCc1nc2ccccc2s1)N1CCN(S(=O)(=O)c2cccs2)CC1
32	0.1	24.1*	-8.8	-1.7	-3.1	-2.2	-0.9	O=S(=O)(c1cccs1)N1CCN(Cc2nc3ccccc3s2)CC1
33	-3.9	83.1*	-2.3	-13.1	-5.2	-2.0	9.5	O=C1CSCN1c1ccc(Cl)cc1
34	-10.9	27.6*	-8.9	2.7	0.6	-5.0	47.3*	CCn1c(SCc2nc3sc(C(=O)O)c(C)c3c(=O)[nH]2)nc2ccccc21
35	-2.0	2.7	-11.5	-0.1	-10.4	0.1	·	COCCn1c(SCc2nc3sc(C(=O)OC)c(C)c3c(=O)[nH]2)nc2ccccc21
36	1.1	21.9*	-6.2	1.3	-4.7	-2.8	-1.2	COc1cc(CC(=O)NCc2ccco2)cc(OC)c1OC
37	·	-0.3	·	·	4.4	·	·	O=C(C[C@@H]1CC[C@@H]2[C@H](COC[C@@H](O)CN2C(=O)Cc2ccccc2)O1)NC1CCCC1
38	·	-1.6	1.2	·	-7.0	·	·	Cc1noc(C)c1S(=O)(=O)N(C)C[C@H]1Oc2ccc(NS(=O)(=O)c3cn(C)cn3)cc2C(=O)N([C@@H](C)CO)C[C@H]1C
39	-5.2	22.0*	-1.6	15.6	4.0	-1.6	1.6	CC(=O)c1cccc(NC(=O)NCc2cccnc2)c1
40	-0.6	·	·	5.1	-0.1	0.3	·	O=C(O)c1ccc(CNCc2cccc(Cl)c2)cc1
41	9.6	30.5*	-4.1	6.2	-3.5	-0.8	3.0	COc1ccc(CNCc2cccc(Cl)c2)cc1
42	·	-3.2	0.1	·	8.1	·	·	O=C(C[C@@H]1C=C[C@H](NC(=O)Nc2ccc(C(F)(F)F)cc2)[C@@H](CO)O1)NCc1cc(F)cc(F)c1
43	-3.7	20.3*	-19.0	-12.1	·	-0.9	12.8	CN1/C(=C\C(=O)Nc2cccc(Cl)c2)C(C)(C)c2ccccc21
44	·	-1.9	-6.9	·	-2.0	·	·	C[C@@H]1CN([C@@H](C)CO)C(=O)Cc2cc(NC(=O)Nc3ccc(F)cc3)ccc2O[C@H]1CN(C)Cc1ccc(C(=O)O)cc1
